Reference: PubChem BioAssay AID504462 (Sanford-Burnham Center for Chemical Genomics, 2011)
This is a selection; strong and weak results do not stand in their true shares. Activity calls are given as the source filed them. Rule as the data show it: active = inhibition above about 40%; inactive = the rest.

Chains of the proteins cited; added tags and fusions are not shown. Lines headed by an entry give the natural chain unless they say otherwise; changes in a name come on top.
UniProt Q9Y4P1: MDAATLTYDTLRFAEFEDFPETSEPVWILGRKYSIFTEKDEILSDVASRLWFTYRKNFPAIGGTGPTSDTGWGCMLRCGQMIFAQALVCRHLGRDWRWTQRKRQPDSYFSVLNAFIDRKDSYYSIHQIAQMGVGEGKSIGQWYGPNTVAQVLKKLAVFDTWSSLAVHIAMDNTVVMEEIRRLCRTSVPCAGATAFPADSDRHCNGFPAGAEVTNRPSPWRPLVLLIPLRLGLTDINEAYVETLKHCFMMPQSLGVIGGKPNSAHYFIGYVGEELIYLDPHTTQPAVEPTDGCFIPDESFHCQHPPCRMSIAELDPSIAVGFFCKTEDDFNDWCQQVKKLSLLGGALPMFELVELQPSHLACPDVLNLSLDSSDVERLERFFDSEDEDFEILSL

Molecular target: Cysteine protease ATG4B (Homo sapiens) (UniProt Q9Y4P1)
Assay: ATG4B protease inhibitors, primary screen, biochemical, fluorescence, uHTS (AID 504462)
Conditions: ATG4B cleavage of LC3-PLA2, NBD-HPC fluorescence, 1 h; at 8.33 µM; hits give high values

Row | SMILES | inhibition
1 | O=[N+]([O-])c1ccc2c(c1)nnn2O | inactive: 6.28%
2 | CN(C)C(=O)c1cc([N+](=O)[O-])cc2c1-c1c(cc([N+](=O)[O-])cc1[N+](=O)[O-])C2=O | inactive: -2.85%
3 | CN(C(=O)Cc1ccc(Cl)c(Cl)c1)[C@H]1CC[C@@]2(CCCO2)C[C@@H]1N1CCCC1 | inactive: -1.99%
4 | N#CCCN(C(=O)COC(=O)C(O)(c1ccccc1)c1ccccc1)c1ccc(F)cc1 | inactive: -4.61%
5 | CCOP1(=S)c2c(C)nn(CCC#N)c2N=C(c2ccc(F)cc2)N1C (configuration not stated) | inactive: -0.09%
6 | CN(C(=O)Cc1ccccc1)[C@@H]1CC[C@]2(CCCO2)C[C@H]1N1CCCC1 | inactive: -4.39%
7 | NC(=O)Nc1ccc([As](=O)(O)O)cc1 | inactive: -9.85%
8 | Cc1cccc(OCC(=O)OC2CN3CCC2CC3)c1 (configuration not stated) | inactive: -6.55%
9 | O=[As](O)(c1cccc(O)c1)c1cccc(O)c1 | inactive: -4.59%
10 | O=[As](O)(O)c1cccnc1 | inactive: -2.02%
11 | COc1cc(C(=O)NCC2(N3CCOCC3)CCCCC2)cc(Cl)c1OC(C)C | inactive: 0.32%
12 | CS(=O)(=O)c1ccc(Cl)c(NC(=O)COC(=O)C(O)(c2ccccc2)c2ccccc2)c1 | inactive: -13.9%
13 | O=C(OC1CN2CCC1CC2)c1ccc(Cl)cc1 (configuration not stated) | inactive: -8.36%
14 | COc1cc(C2NCCC3(OCCO3)C2(C)C)cc(OC)c1OC (configuration not stated) | inactive: -3.3%
15 | CCOP(=O)(Nc1cccc2ccccc12)OCC | inactive: 3.18%
16 | CCCOP(=S)(Nc1nc(N)cc(=O)[nH]1)OCCC | inactive: -2.19%
17 | Nc1cccc2c([As](=O)(O)O)cccc12 | inactive: -2.46%
18 | Cc1ccc(NCCc2c([N+](=O)[O-])cc([N+](=O)[O-])cc2[N+](=O)[O-])cc1 | inactive: 2.78%
19 | COc1ccc2nc(NP(=O)(c3ccccc3)c3ccccc3)sc2c1 | inactive: -11.1%
20 | COc1cc(I)ccc1[As](=O)(O)O | inactive: -0.59%
21 | O=P1(N(CCCl)CCCl)OCCCN1CCCl (configuration not stated) | inactive: 0.29%

Row | SMILES | inhibition
22 | O=P1(N(CCCl)CCCl)Nc2ccccc2N1 | inactive: 0.73%
23 | O=C(OC1CN2CCC1CC2)C12CC3CC(CC(C3)C1)C2 (configuration not stated) | inactive: -0.57%
24 | Cc1cc(=O)[nH]c(N[N+](=O)[O-])n1 | inactive: -0.06%
25 | Cc1c2c(nc3ccccc13)SC(C(Cl)Cl)C2 (configuration not stated) | inactive: -5.88%
26 | COc1ccc(N/C(=N/P(=O)(N2CCOCC2)N2CCOCC2)N2CCOCC2)cc1 | inactive: -4.71%
27 | O=[N+]([O-])c1cc(Oc2ccc([N+](=O)[O-])cc2C(F)(F)F)cc([N+](=O)[O-])c1 | inactive: -2.71%
28 | Cc1ccc2nc3c(c(C)c2c1)CC(C(Cl)Cl)S3 (configuration not stated) | inactive: 4.28%
29 | Cc1ccc(OP(=O)(Nc2ccc([N+](=O)[O-])cn2)Oc2ccc(C)cc2)cc1 | inactive: 5.01%
30 | O=[As](O)(c1ccc(O)cc1)c1ccccc1O | inactive: -0.81%
31 | C[As](=O)(O)c1cccc(C(=O)O)c1 | inactive: -2.98%
32 | O=[N+]([O-])c1ccc(-c2cc([N+](=O)[O-])c(O)c([N+](=O)[O-])c2)cc1 | inactive: -7.9%
33 | COc1cc(C(=O)NCC2(N3CCOCC3)CCCCC2)ccc1OCC(C)C | inactive: -6.77%
34 | CC(C)NC(=O)NP(=O)(Oc1ccccc1)Oc1ccccc1 | inactive: -3.85%
35 | O=C(OC1CN2CCC1CC2)c1cccc2[nH]cnc12 (configuration not stated) | inactive: -0.96%
36 | CCN(CC)C(=S)SC(NC=O)C(Cl)(Cl)Cl (configuration not stated) | inactive: 4.35%
37 | O=[N+]([O-])c1cc([N+](=O)[O-])c(-c2ccn[nH]2)s1 | inactive: -5.67%
38 | COC(=O)C1(C)COP(=O)(N2CCCCCC2)OC1 (configuration not stated) | inactive: 2.45%
39 | CC(C)c1ccc(OP(=O)(Nc2ccccn2)Oc2ccccc2F)cc1 (configuration not stated) | inactive: -1.81%
40 | ClCCSc1nnc(-c2cccnc2)o1 | inactive: -8.22%
41 | CCCCOc1ccc(C(=O)NCC2(N3CCCCC3)CCCCC2)cc1OC | inactive: 4.29%
42 | Cc1cc(SC(NC(=O)c2ccccc2)C(Cl)(Cl)Cl)nc(C(C)C)n1 (configuration not stated) | inactive: 0.76%

Row | SMILES | inhibition
43 | CC1CCNP(=O)(N(CCCl)CCCl)O1 (configuration not stated) | inactive: -2.29%
44 | CCOC(=O)Nc1ccc([As](=O)(O)O)c(O)c1 | inactive: 7.33%
45 | O=[N+]([O-])c1ccc(Nc2ccc(Oc3ccc([N+](=O)[O-])cc3[N+](=O)[O-])cc2)c([N+](=O)[O-])c1 | inactive: -7.05%
46 | O=P(Nc1ccccn1)(c1cccc2ccccc12)c1cccc2ccccc12 | inactive: -16.2%
47 | Cc1cc(SC(NC=O)C(Cl)(Cl)Cl)ncn1 (configuration not stated) | inactive: 5.56%
48 | CCOC(=O)Nc1cccc([As](=O)(O)O)c1 | inactive: 5.62%
49 | O=C(COc1ccccc1)OC1CN2CCC1CC2 (configuration not stated) | inactive: -4.13%
50 | O=C(Nc1ccncc1[N+](=O)[O-])c1ccc([N+](=O)[O-])cc1[N+](=O)[O-] | inactive: -3.94%
51 | COP1(=S)c2c(C)nn(CCC#N)c2N=C(c2ccc(F)cc2)N1C (configuration not stated) | inactive: 3.03%
52 | CCC(C)N(CC(C)C)C(=S)SC(NC(C)=O)C(Cl)(Cl)Cl (configuration not stated) | inactive: -2.74%
53 | CCOC(=O)c1ccc(NC(=O)C(C)(CCl)SC)cc1 (configuration not stated) | inactive: 0.99%
54 | O=C(OC1CN2CCC1CC2)c1cccc([N+](=O)[O-])c1 (configuration not stated) | inactive: -6.31%
55 | O=[N+]([O-])c1cccc2n[nH]nc12 | inactive: -3.76%
56 | CC(=O)N1C2C3N(C(C)=O)C1C1N(C(C)=O)C(C(N1C(C)=O)N3C(C)=O)N2C(C)=O | inactive: -1.13%
57 | Cc1ccc(NP(=O)(Oc2ccccc2)Oc2ccccc2)nc1 | inactive: 2.08%
58 | CCc1nc2c(n1)c1c(non1O)c1c2no[n+]1[O-] | inactive: -1.69%
59 | O=[N+]([O-])c1cc([N+](=O)[O-])c(CCNc2ccccc2)c([N+](=O)[O-])c1 | inactive: -1.59%
60 | COc1ccc(C2=NCC(CBr)S2)cc1 (configuration not stated) | inactive: -13.3%
61 | CC(C)=N/N=C(\N)N[N+](=O)[O-] | inactive: -6.98%
62 | CN(C)C(=O)OCCc1n(C)cc[n+]1C | inactive: 7.74%
